Measured values as given in patent US20130040935A1, “CYCLIC KETO-ENOLS FOR THERAPY” (BAYER INTELLECTUAL PROPERTY GMBH, priority 2010, published 2013).

Sequences of proteins named here, by UniProt entry; tags and fusion partners are left off. Residues count along the entry.
UniProt O00763, 27-2458 limits assumed: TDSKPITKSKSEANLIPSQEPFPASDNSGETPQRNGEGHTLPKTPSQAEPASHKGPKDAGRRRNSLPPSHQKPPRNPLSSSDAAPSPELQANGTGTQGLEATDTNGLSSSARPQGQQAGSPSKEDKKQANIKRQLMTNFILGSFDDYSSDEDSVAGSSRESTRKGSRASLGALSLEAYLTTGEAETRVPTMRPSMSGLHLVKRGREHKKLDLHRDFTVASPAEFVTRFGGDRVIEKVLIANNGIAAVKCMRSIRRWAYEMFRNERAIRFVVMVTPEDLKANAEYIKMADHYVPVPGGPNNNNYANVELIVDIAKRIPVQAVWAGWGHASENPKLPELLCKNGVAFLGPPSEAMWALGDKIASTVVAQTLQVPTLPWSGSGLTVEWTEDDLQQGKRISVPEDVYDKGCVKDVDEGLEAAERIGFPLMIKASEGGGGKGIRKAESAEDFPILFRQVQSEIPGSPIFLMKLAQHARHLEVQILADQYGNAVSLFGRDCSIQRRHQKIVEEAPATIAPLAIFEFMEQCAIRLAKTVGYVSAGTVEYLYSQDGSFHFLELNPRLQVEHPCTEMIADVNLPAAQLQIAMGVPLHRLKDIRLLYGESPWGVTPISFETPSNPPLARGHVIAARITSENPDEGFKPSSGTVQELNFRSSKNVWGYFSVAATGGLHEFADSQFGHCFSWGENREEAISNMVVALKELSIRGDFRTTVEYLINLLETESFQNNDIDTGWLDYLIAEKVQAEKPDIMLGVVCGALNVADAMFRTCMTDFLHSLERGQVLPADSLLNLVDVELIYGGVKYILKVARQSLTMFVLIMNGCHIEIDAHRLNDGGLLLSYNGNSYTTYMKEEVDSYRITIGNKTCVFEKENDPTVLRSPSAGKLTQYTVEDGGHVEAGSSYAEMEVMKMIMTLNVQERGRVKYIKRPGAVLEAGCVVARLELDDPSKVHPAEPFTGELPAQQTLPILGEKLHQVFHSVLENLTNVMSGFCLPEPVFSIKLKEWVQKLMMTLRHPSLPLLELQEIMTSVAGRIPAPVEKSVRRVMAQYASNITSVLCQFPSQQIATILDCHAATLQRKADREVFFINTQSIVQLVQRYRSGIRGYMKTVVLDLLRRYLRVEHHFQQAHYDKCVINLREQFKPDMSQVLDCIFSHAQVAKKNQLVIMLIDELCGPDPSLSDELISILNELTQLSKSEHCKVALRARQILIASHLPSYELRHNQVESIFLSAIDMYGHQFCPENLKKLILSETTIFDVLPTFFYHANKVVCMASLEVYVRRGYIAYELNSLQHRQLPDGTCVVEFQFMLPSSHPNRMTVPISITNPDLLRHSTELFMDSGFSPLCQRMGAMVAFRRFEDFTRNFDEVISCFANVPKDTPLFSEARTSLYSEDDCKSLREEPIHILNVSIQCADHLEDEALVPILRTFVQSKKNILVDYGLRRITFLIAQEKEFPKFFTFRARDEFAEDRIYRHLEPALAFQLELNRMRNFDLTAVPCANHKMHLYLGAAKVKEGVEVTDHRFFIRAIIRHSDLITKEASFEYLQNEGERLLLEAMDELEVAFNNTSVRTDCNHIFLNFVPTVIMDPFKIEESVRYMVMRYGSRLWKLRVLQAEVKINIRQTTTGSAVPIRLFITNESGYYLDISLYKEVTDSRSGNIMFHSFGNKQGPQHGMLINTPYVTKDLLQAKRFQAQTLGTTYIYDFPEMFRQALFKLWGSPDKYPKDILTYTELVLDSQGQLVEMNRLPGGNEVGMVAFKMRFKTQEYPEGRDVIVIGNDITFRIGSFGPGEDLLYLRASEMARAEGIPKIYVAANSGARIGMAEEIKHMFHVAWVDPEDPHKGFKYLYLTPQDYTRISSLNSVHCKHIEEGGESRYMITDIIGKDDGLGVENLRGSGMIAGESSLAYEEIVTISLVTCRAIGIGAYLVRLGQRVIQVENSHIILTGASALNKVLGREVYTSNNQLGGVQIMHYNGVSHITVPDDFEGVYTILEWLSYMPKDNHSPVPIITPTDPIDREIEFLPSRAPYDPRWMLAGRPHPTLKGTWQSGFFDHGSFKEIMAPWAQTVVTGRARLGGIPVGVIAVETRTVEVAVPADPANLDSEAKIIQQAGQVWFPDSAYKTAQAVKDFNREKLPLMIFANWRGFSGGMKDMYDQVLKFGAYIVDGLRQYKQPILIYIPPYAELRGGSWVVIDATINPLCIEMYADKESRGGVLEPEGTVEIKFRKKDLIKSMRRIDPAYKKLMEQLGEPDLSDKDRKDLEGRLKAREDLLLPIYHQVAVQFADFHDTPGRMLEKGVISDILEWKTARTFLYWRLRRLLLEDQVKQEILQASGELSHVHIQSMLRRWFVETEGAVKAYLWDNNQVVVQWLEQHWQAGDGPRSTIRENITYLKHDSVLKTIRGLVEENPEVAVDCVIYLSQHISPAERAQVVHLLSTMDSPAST
UniProt O00763, 39-2458 limits assumed: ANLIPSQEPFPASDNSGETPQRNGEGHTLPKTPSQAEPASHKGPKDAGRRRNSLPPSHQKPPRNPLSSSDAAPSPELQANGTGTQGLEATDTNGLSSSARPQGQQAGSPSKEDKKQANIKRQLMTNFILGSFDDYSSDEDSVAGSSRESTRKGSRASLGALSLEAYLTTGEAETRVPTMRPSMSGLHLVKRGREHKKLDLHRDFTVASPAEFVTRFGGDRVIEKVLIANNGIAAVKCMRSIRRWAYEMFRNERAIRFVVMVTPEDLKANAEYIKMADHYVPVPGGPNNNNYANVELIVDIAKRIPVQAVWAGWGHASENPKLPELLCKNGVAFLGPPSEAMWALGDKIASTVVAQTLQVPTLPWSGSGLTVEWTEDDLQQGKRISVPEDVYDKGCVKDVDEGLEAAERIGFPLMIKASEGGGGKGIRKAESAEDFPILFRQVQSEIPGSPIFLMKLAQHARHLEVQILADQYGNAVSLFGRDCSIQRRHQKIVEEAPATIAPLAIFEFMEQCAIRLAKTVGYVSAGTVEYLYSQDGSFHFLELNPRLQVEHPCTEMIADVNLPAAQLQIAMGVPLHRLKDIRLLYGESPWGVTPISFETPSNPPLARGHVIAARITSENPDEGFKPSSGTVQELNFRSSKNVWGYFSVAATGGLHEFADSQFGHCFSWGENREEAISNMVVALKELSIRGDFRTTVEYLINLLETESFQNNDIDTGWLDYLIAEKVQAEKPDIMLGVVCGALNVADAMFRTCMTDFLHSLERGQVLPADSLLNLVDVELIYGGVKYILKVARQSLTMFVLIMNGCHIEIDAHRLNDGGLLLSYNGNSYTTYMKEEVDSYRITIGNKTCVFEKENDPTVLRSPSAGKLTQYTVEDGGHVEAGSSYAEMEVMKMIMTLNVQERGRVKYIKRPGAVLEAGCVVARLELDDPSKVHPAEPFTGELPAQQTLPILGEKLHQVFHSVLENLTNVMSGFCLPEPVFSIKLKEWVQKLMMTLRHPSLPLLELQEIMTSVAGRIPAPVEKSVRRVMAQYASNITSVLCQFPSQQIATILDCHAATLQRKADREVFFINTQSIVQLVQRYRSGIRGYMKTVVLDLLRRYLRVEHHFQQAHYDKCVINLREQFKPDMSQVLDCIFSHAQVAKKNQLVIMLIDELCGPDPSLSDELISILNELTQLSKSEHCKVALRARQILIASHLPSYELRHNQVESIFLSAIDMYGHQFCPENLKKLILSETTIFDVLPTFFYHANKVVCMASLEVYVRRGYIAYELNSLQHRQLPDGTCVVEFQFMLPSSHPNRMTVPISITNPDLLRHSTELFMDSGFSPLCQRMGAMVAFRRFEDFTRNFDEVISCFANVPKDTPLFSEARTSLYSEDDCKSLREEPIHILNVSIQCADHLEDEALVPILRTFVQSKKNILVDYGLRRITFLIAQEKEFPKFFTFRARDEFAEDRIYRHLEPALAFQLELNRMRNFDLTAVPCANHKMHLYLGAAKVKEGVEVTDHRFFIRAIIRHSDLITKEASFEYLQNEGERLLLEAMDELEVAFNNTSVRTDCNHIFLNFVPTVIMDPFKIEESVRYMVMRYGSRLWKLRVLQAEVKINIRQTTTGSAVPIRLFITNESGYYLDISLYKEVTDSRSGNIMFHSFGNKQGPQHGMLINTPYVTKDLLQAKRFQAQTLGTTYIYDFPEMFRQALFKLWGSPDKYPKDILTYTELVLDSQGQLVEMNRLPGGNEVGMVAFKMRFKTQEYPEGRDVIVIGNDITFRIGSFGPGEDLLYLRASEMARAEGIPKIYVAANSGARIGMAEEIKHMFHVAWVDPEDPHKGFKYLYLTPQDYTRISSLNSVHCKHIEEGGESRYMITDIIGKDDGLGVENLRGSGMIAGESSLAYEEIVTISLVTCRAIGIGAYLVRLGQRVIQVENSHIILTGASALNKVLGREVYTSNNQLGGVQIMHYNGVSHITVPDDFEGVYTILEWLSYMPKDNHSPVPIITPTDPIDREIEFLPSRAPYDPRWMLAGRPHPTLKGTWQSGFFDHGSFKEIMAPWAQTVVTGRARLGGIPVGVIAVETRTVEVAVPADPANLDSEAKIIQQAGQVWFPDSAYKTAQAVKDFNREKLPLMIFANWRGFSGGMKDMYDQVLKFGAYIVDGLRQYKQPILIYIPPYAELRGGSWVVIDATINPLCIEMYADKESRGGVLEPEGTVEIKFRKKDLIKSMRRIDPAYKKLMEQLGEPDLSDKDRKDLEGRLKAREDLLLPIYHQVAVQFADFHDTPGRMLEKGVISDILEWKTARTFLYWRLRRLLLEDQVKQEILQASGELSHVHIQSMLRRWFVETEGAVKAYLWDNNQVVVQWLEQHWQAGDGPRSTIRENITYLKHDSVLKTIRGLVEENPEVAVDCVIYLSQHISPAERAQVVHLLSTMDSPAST

Experiments:
MCF7 = assay: Cell proliferation assay (CellTiter-Glo, 96 h), MCF7; conditions: read-out: MCF7 IC50; Table 7; 96-hour incubation
Description: In accordance with the invention, the substances were tested in cell-based assays for the ability of the substances of inhibiting tumour cell proliferation after a 96-hour incubation with the substance. Cell viability was tested using the CellTiter-Glo® luminescent cell viability assay (Promega). The cells were sown at a density of 2000-5000 cells/well (depending on the cell line) in 100 μl growth medium on 96-well microtitre plates. For each cell line examined, cells were sown on a separate plate to determine the luminescence at t=0 hours and t=96 hours. After overnight incubation at 37° C., the luminescence values for the t=0 samples were determined. The dose plates for the t=96 hours points in time were treated with substances diluted with growth medium. The cells were then incubated at 37° C. for 96 hours, and the luminescence values for the t=96 hours sample were then determined. For data analysis, the t=0 values were subtracted from the t=96 hour values for treated and untreated samples. The differences in luminescence in percent between substance-treated samples and control values were used to determine the growth inhibition in percent.
The substances were tested in the following cell lines which represent the stated indications in an exemplary manner: […]

[1] = biological target: human ACC2 (acetyl-coenzyme A carboxylase 2) (Homo sapiens, UniProt O00763);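 further: human ACC2 activity read as ADP product, detected by luciferase glow luminescence after residual ATP removal, enzyme near 2 ng/µl in linear range, detection steps at 22 °C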
[2] = biological target: human ACC1 (acetyl-coenzyme A carboxylase alpha transcript variant 1) (Homo sapiens, UniProt Q13085); assay: Human ACC1 enzyme assay, Assay B1 (ADP-Glo); assay type: biochemical; conditions: read-out: ACC 1 (=B1) IC50
recombinant human ACC1 = recombinant human ACC1 (Homo sapiens, UniProt Q13085); assay: Human ACC1 enzyme assay, Assay A1 (HTRF ADP immunoassay); conditions: read-out: ACC 1 (=A1) IC50;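 further: ADP generated by the enzyme quantified via competitive time-resolved FRET, read as europium cryptate to d2 energy transfer after 1 h at 22 °C with labelled ADP tracer and anti-ADP antibody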
[3] = biological target: acetyl-CoA carboxylase 2 (ACC2) (Homo sapiens, UniProt O00763); assay: Human ACC2 enzyme assay, Assay A2 (HTRF ADP immunoassay); conditions: read-out: ACC 2 (=A2) IC50;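 further: ADP generated by ACC2 quantified via competitive time-resolved FRET between europium cryptate anti-ADP antibody and d2-tagged ADP, enzyme kept in linear range near 0.6 ng/µl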

Structure (SMILES)	IC50 (MCF7) [nM]	IC50 [1] [nM]	IC50 [2] [nM]	IC50 (recombinant human ACC1) [nM]	IC50 [3] [nM]
Cc1ccc(-c2ccc(Cl)cc2)cc1C1=C(O)C2(CCOC(C)C2)NC1=O (centres unmarked)	310	> 20000	643	–	–
CO[C@H]1CC[C@]2(CC1)NC(=O)C(c1cc(-c3ccc(F)cc3Cl)ccc1C)=C2O	149	8530	221	406	4920
